Screening results (PubChem BioAssay)
Compounds with a hit are over-represented: about 1.5% of the library has one in this group of screens.
MLLE-PAM2 inh: inhibitors of microRNA-mediated deadenylation, human PABP1 MLLE binding; inhibition, % at 20 µM; 360,000 tested, 0.36% active; GST-MLLE / FITC-PAM2 fluorescence polarization; in the data active = inhibition above about 35%, passing the limit was not always enough
Yeast UUG start: modulators of yeast start codon fidelity, primary screen, whole organism, S. cerevisiae, single point, plate reader; S. cerevisiae UUG-firefly luciferase reporter, luminescence/redox ratio; activity score, % at 18.7 µM; 0.13% of 350,000 active; AID 602363, 2012;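 active = replicate mean at a twofold rise or more, about +100% in these data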;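 also: firefly luciferase made from a UUG start codon reports start codon fidelity; reporter light over untreated wells divided by growth signal over untreated wells; some hits fall short of that in this replicate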
DSG3 Ab inh: inhibitors of pemphigus antibody binding to human desmoglein-3; P32926; DSG3-coupled beads, scFv-anti-DSG3-GFP binding, flow cytometry; hits give low values; binding (percent of control), % at 10 µM; 310,000 tested, 0.48% active;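 active = binding more than 3 SD below its plate's average and above zero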;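 note: hits lower antibody fragment binding to DSG3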
PABP polyA inh: PABP-poly(A) binding inhibition; P11940; PABP-poly(A) RNA binding, fluorescence polarization; calls only at 35 µM; 290,000 tested, 1% active;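 note: calls also rest on retests at 20 µM and on dose response follow-up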
eIF4H FP inh: inhibitors of RNA binding by human eIF4H; eIF4H fluorescence polarization binding assay; inhibition, % at 35 µM; 290,000 tested, 0.94% active;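 note: calls also rest on retests at 20 µM and on dose response follow-up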
Hits are given with their value. Unless noted, the rule behind the calls is not given here.

For CCCCn1c(=O)nc2n(-c3ccccc3C)c3ccccc3cc-2c1=O the results were MLLE-PAM2 inh inactive, Yeast UUG start inactive, DSG3 Ab inh inactive, PABP polyA inh inactive and eIF4H FP inh inactive.
`Cc1ccccc1-n1c2nc(=O)n(C)c(=O)c-2cc2ccccc21` gave MLLE-PAM2 inh inactive, Yeast UUG start inactive, DSG3 Ab inh inactive, PABP polyA inh active and eIF4H FP inh inactive.
For CCCC/C(C)=N/NC(=O)Nc1ccccc1 the results were MLLE-PAM2 inh inactive, Yeast UUG start inactive, DSG3 Ab inh inactive, PABP polyA inh inactive and eIF4H FP inh inactive.
For CCCCC/C(=N\NC(=O)Nc1ccccc1)c1ccccc1 the results were MLLE-PAM2 inh inactive, DSG3 Ab inh -12, PABP polyA inh inactive and eIF4H FP inh inactive.
`O=C(CSc1nc2ccccc2c(=O)n1-c1ccccc1)N1CCc2ccccc2C1` gave MLLE-PAM2 inh inactive, Yeast UUG start inactive, DSG3 Ab inh inactive, PABP polyA inh inactive and eIF4H FP inh inactive.
`CC(C)c1ccccc1-n1c(SCC(=O)N2CCc3ccccc3C2)nc2ccccc2c1=O` gave MLLE-PAM2 inh inactive, Yeast UUG start inactive, DSG3 Ab inh inactive, PABP polyA inh active and eIF4H FP inh inactive.
N#Cc1ccc(OCC(=O)OCC(=O)N2CCc3ccccc32)cc1 was read as MLLE-PAM2 inh inactive, Yeast UUG start inactive and DSG3 Ab inh inactive.
`CCC(=O)c1ccc(OCC(=O)OCC(=O)N2CCc3ccccc32)cc1` gave MLLE-PAM2 inh inactive, Yeast UUG start inactive and DSG3 Ab inh 63.
Screening CC(=O)Nc1nnc(S(N)(=O)=O)s1 returned MLLE-PAM2 inh inactive, Yeast UUG start inactive, DSG3 Ab inh inactive, PABP polyA inh inactive and eIF4H FP inh inactive.
Screening CC(=O)N=c1sc(S(N)(=O)=O)nn1C returned MLLE-PAM2 inh inactive, Yeast UUG start inactive, DSG3 Ab inh -12, PABP polyA inh inactive and eIF4H FP inh inactive.
For C[C@@H]1CN([C@H](C)CO)C(=O)c2cccc(NC(=O)NC3CCCCC3)c2O[C@@H]1CN(C)C the results were Yeast UUG start inactive.
`Cc1cc(C)n(NC(=S)NC2CCCCC2)c(=O)c1C#N` gave MLLE-PAM2 inh 45, DSG3 Ab inh inactive, PABP polyA inh inactive and eIF4H FP inh inactive.
COc1ccc(NC(=O)C2CC(c3ccc(Cl)cc3)=NO2)cc1OC (configuration not stated) was read as MLLE-PAM2 inh inactive, Yeast UUG start inactive, DSG3 Ab inh inactive, PABP polyA inh inactive and eIF4H FP inh inactive.
COc1cc(NC(=O)C2CC(c3ccc(Cl)cc3)=NO2)cc(OC)c1OC (configuration not stated) was read as MLLE-PAM2 inh inactive, Yeast UUG start inactive, DSG3 Ab inh 63, PABP polyA inh inactive and eIF4H FP inh inactive.
For Cc1[nH]n(C2=NCCS2)c(=O)c1N=Nc1ccccc1 the results were MLLE-PAM2 inh 40, DSG3 Ab inh inactive, PABP polyA inh inactive and eIF4H FP inh inactive.
`Cc1[nH]n(-c2ccccc2)c(=O)c1N=Nc1ccc2c(c1)OCO2` gave MLLE-PAM2 inh inactive, DSG3 Ab inh inactive, PABP polyA inh inactive and eIF4H FP inh inactive.
Nc1ccc2c(c1)[nH]c(=O)c1cc(N)ccc12 was read as MLLE-PAM2 inh inactive, Yeast UUG start inactive and DSG3 Ab inh 75.
COc1ccc(NC(=O)Nc2ccc3c(c2)C(=O)N([C@@H](C)CO)C[C@H](C)[C@H](CN(C)Cc2ccncc2)O3)cc1 was read as Yeast UUG start inactive.
CCC(=O)c1ccc2c(c1)N(CCCN(C)C)c1ccccc1S2 was read as MLLE-PAM2 inh inactive and Yeast UUG start inactive.
Screening CC(=O)c1ccc2c(c1)N(CCCN(C)C)c1ccccc1S2 returned MLLE-PAM2 inh 50, Yeast UUG start inactive and DSG3 Ab inh inactive.
For CC(=O)c1ccc2c(c1)Nc1ccccc1S2 the results were MLLE-PAM2 inh inactive, DSG3 Ab inh inactive, PABP polyA inh active and eIF4H FP inh 67.
Screening CO[C@@H]1CN(C)C(=O)c2cc(NS(C)(=O)=O)ccc2OC[C@@H](C)N(C(=O)C2CC2)C[C@H]1C returned Yeast UUG start inactive.
For Cc1noc(C)c1S(=O)(=O)Nc1ccc2c(c1)C(=O)N([C@@H](C)CO)C[C@@H](C)[C@@H](CN(C)C(=O)Nc1ccc3c(c1)OCO3)O2 the results were Yeast UUG start inactive.
Screening Cc1ccc(C)c(S(=O)(=O)C(C#N)c2nc3ccccc3nc2N2CC(C)OC(C)C2)c1 (configuration not stated) returned MLLE-PAM2 inh inactive, Yeast UUG start inactive, PABP polyA inh active and eIF4H FP inh 78.
